Source: paper PMC7201918 (The Journal of Experimental Medicine, 2020)

Legend:
[1] = system: WT and CIS−/− BM common myeloid progenitor cells; test: Generation of common myeloid progenitors from BM cells in IL-3; format: cell-based, mouse; details: IL-3 for 3 d, n = 3 mice
[2] = system: common myeloid progenitors; details: ref Burnham et al., 2013; Matsumoto et al., 1997; Yoshimura et al., 1995; cited from earlier work

B1: IL-3: cytokine signaling through the common β chain (protein, UniProt P08700 20-152, looked up)
Interleukin-3: APMTQTTPLKTSWVNCSNMIDEIITHLKQPPLPLLDFNNLNGEDQDILMENNLRRPNLEAFNRAVKSLQNASAIESILKNLLPCLPLATAAPTRHPIHIKDGDWNEFRRKLTFYLKTLENAQAQQTTLSLAIF
What does the source list for B1?
common myeloid progenitor numbers [1]: greater numbers; Cish expression in common myeloid progenitors [2]: can induce Cish expression
